# Apparent affinities of Ab-14 variants for a coronavirus HR2 peptide

From the AlphaSeq antibody data of Engelhart et al. 2022 (doi:10.1038/s41597-022-01779-4), copy in the FLAb collection.

Antigen: PDVDLGDISGINAS, a 14-residue peptide of the SARS-CoV-2 spike HR2 region.

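Variants in AAYL50 differ from the parent at up to three CDR positions; double and triple changes were sampled at random. The scFvs were displayed on barcoded MATa yeast, the peptide on MATalpha yeast. Pairs that bind mate more often; barcode pairs of the diploids are counted by sequencing. The ratio of observed to expected reads was calibrated, replicate by replicate, on BCL2-family standards whose Kd was known from biolayer interferometry. Each pool was mated in three replicate cultures.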

The variants keep the heavy chain, the linker and the frameworks of Ab-14 (scFv order VH, the linker GGGGSGGGGSGGGGS, VL).
VH: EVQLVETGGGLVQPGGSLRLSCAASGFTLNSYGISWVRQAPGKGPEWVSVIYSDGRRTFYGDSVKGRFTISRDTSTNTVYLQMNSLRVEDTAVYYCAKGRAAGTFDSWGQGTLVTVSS
VL: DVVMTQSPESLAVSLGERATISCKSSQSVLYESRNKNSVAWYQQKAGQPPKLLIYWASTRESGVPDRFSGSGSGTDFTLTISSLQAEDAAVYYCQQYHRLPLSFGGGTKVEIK

Substitutions are numbered in sequence along the VL above, starting at 1 (not Kabat).
Affinities are written as log10 Kd with Kd in nM; a lower number is a better binder.
Replicates are averaged; those with no signal do not enter the mean.
"ND" means that the variant was in the library but no mating with the target was seen in that replicate; the authors take this as a sign of poor binding, and no number exists.

For N37M/A40Y/S103M, the assay gave ND, ND, ND (controls 0 of 9).
For S28P/L30A/T59L, the assay gave 0.80, 0.93, 0.91 (mean 0.88; controls 2 of 9).
For R34N/S58C, the assay gave 2.56, 3.79, 2.73 (mean 3.03; controls 0 of 9).
For S26D/V29D/W56E, the assay gave -0.16, 0.07, -0.02 (mean -0.04; controls 0 of 9).
For S28I/S62C/L100W, the assay gave 2.36, 2.52, 3.03 (mean 2.64; controls 0 of 9).
For S26R/Q27K/R60T, the assay gave 3.54, ND, ND (controls 2 of 9).
For L30S/A57V, the assay gave 1.57, 1.52, 1.29 (mean 1.46; controls 1 of 9).
For S62F/Y97W/L100Q, the assay gave 1.10, 1.43, 1.65 (mean 1.39; controls 2 of 9).
For S58N/Y97F, the assay gave ND, ND, ND (controls 0 of 9).
For V29T/S33E/Q96K, the assay gave 4.44, ND, ND (controls 2 of 9).
For S25A/L30M/H98R, the assay gave 1.47, 1.71, 1.76 (mean 1.64; controls 6 of 9).
For Q96D/H98K/R99T, the assay gave 3.82, ND, 3.15 (mean 3.48; controls 1 of 9).
For S28V/L100T, the assay gave 3.27, 2.36, 2.08 (mean 2.57; controls 2 of 9).
For S38G/S58I/L100D, the assay gave ND, ND, 3.91 (controls 3 of 9).
For W56Q/R60G/L100N, the assay gave ND, 3.90, ND (controls 2 of 9).
For S33H/S38F/R60I, the assay gave 5.87, ND, ND (controls 1 of 9).
For A40N/R60K, the assay gave ND, ND, ND (controls 1 of 9).
For S25N/V29N/Q95D, the assay gave 4.57, ND, ND (controls 2 of 9).
For Q27C/W56L, the assay gave 1.31, 1.63, 1.77 (mean 1.57; controls 1 of 9).
For A57V/Q95F/H98C, the assay gave ND, 1.94, ND (controls 0 of 9).
For S25F/Y31N/N35V, the assay gave 0.98, 1.05, 0.91 (mean 0.98; controls 4 of 9).
For V29Y/Y31P, the assay gave 1.37, 1.66, 1.53 (mean 1.52; controls 3 of 9).
For S28R/V29H/A57W, the assay gave ND, 4.16, ND (controls 0 of 9).
For A57G/P101V/S103C, the assay gave 1.25, 1.23, 1.13 (mean 1.21; controls 0 of 9).
For N35S/T59F/L100G, the assay gave ND, ND, ND (controls 2 of 9).
For S25T/E32H/S33N, the assay gave 1.05, 1.21, 1.01 (mean 1.09; controls 0 of 9).
For K24V/V39S/S58F, the assay gave ND, ND, ND (controls 0 of 9).
For Q95N/Y97L/S103N, the assay gave 2.05, 1.35, ND (mean 1.70; controls 0 of 9).
For S28M/N37A/A40D, the assay gave ND, ND, ND (controls 0 of 9).
For Y31M/S33H/L100V, the assay gave 1.80, 2.02, 1.61 (mean 1.81; controls 2 of 9).
For L30M/Q95E/L102A, the assay gave 0.88, 0.76, 0.62 (mean 0.76; controls 0 of 9).
For W56A/L100D/S103D, the assay gave ND, ND, ND (controls 0 of 9).
For S28A/T59E/L102N, the assay gave ND, ND, ND (controls 1 of 9).
For Q27K/S28E/H98F, the assay gave 0.12, 0.52, 0.37 (mean 0.34; controls 4 of 9).

The opening 3 entries, copied out:

| changes | log10 Kd (nM) by replicate | log10 Kd (nM), mean | empty controls |
|---|---|---|---|
| N37M/A40Y/S103M | ND, ND, ND | ND | 0/9 |
| S28P/L30A/T59L | 0.80, 0.93, 0.91 | 0.88 | 2/9 |
| R34N/S58C | 2.56, 3.79, 2.73 | 3.03 | 0/9 |

Background: pairings of library AAYL50 with three empty control strains gave a value in 18% of cases (median 4.19, 5th percentile 2.99). Values in that range, when seen in few replicates, are hard to tell from nonspecific mating. For each scFv, signals with the empty controls are counted beside the result.